Test: Stability of zinc pyrithione aqueous dispersion: layer separation degree via centrifugation, naked eye
Format: physicochemical
Conditions: zinc pyrithione aqueous dispersion including the antiseptic, layer separation degree (supernatant height / total height) via centrifugation
Experimental: First, a zinc pyrithione aqueous dispersion including an antiseptic which was identified to have antiseptic activity was prepared and then stored at room temperature (R.T.), at a temperature ranging from 10° C. to 20° C., or 60° C., and variation in physical properties related to stability and dispersibility were checked.
Variation in physical properties was determined depending on whether or not assay, viscosity, pH and particle size were changed, and variation in dispersibility was determined by checking layer separation degree using centrifugation and measuring dispersion stability using Turbiscan for detecting particle size variation and phase separation.
Stability was evaluated by checking a layer separation degree (production of supernatant) using centrifugation by the naked eye and was divided into grades based on the proportion of the height of the layer-separated supernatant with respect to the total height of the sample. With respect to the grades, layer separation degree (production of supernatant) of less than 5% was regarded as “high”, layer separation degree of 10% or less was regarded as “medium-high”, layer separation degree of 15% or less was regarded as “medium”, layer separation degree of 20% or less was regarded as “medium-low” and layer separation degree of higher than 20% was regarded as “low”.

Ethylhexyl glycerin
Stability of zinc pyrithione aqueous dispersion: Medium-high (layer separation degree of 10% or less was regarded as “medium-high”)

Reference: patent US20170312293A1, “ANTIMICROBIAL WATER DISPERSIBLE COMPOSITION COMPRISING ZINC PYRITHIONE” (KOLON LIFE SCIENCE, INC., priority 2014, published 2017)
